Biological target: T1, δ opioid receptor (DPDPE) in the MVD preparation (Mus musculus, UniProt P32300)
T1 construct: electrically stimulated mouse vas deferens (MVD) and guinea pig ileum (GPI) smooth muscle preparations; from tissue; host or cells: mouse vas deferens
Assay: Opioid antagonist potency against DPDPE (δ) in electrically stimulated mouse vas deferens (MVD)
Assay type: cell-based

The chains behind the UniProt entries cited, without tags or fusion partners. Where a name states a change or a piece, a line headed by the entry shows the natural chain unless it says otherwise.
UniProt P32300, whole entry: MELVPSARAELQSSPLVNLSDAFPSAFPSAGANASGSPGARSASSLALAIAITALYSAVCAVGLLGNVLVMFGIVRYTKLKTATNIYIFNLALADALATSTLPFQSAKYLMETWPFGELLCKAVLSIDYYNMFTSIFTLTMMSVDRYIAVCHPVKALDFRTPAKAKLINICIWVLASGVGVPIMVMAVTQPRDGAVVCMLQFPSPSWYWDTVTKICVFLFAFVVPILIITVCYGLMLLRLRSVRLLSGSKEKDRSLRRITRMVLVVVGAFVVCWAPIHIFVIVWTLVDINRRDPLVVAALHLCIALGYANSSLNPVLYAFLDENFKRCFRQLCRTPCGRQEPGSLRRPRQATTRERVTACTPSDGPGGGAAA

Compound `Oc1ccc2c3c1O[C@H]1c4ncc(-c5ccc(Cl)cc5)cc4C[C@@]4(O)[C@@H](C2)N(CC2CC2)CC[C@]314` [Compound 6d, 5′-(4-Chlorophenyl)-17-(Cyclopropylmethyl)-6,7-didehydro-3,14-dihydroxy-4,5α-epoxypyrido[2′3′:6,7]morphinan] has a Kb of 0.66 nM.

Source: patent US6465479B1, “Pyridomorphinans and use thereof” (Southern Research Institute, priority 1999, dated 2002)
